{"source": "patent US12491172B2", "about": "“Treatment of diabetes” (priority 2019, dated 2025)", "key": {"[1]": {"tested_on": "STZ-treated C57BL/6J mice", "assay": "Diabetes progression in streptozotocin-treated C57BL/6J mice"}, "HIF-1α target genes": {"tested_on": "HIF-1α target genes", "assay": "Gene expression of HIF-1α target genes in isolated islets (RT-qPCR)", "assay_type": "cell-based, mouse", "conditions": "islets treated with GKA50, with PX-478, 20 hours"}, "[2]": {"tested_on": "pancreatic islets of db/db mice", "assay": "Immunocytochemistry of pancreas sections of db/db mice (Ki67, insulin, glucagon, somatostatin)"}, "db/db mice [3]": {"tested_on": "db/db mice", "assay": "Diabetes progression in db/db mice treated from 6 weeks of age"}, "[4]": {"tested_on": "isolated pancreatic islets", "assay": "Static batch incubation (insulin secretion) of isolated islets", "assay_type": "cell-based, mouse"}, "db/db mice [5]": {"tested_on": "db/db mice", "assay": "Diabetes progression in db/db mice already hyperglycemic at 5 weeks of age"}, "db/db mice [6]": {"tested_on": "db/db mice", "assay": "Glucose and insulin tolerance test in db/db mice"}, "[7]": {"tested_on": "white adipose tissue of db/db mice", "assay": "Gene expression analysis of visceral and subcutaneous white adipose tissue in db/db mice", "conditions": "30-40 mg per kg PX-478 IP"}, "[8]": {"tested_on": "isolated pancreatic islets", "assay": "Cell viability of islets using propidium iodide", "conditions": "islets treated 20 hours, with or without GKA50 co-treatment"}, "[9]": {"tested_on": "isolated pancreatic islets", "assay": "Measurements of cytoplasmic free Ca2+-concentration in islets", "assay_type": "cell-based, mouse"}, "[10]": {"conditions": "db/db mice after 6 hours of fasting"}}}
{"molecule": "N[C@@H](Cc1ccc([N+]([O-])(CCCl)CCCl)cc1)C(=O)O", "values": [{"measurement": "blood glucose concentration", "setting": "[1]; 40-45 mg per kg", "value": "significantly decreased blood glucose concentration"}, {"measurement": "body weight", "setting": "[1]; inhibitor twice a week", "value": "did not influence the body weight"}, {"measurement": "expression of Glut1, Igfbp3, Hk2 and Pgk1", "setting": "HIF-1α target genes", "value": "significantly decreased"}, {"measurement": "number of glucagon and somatostatin-producing cells", "setting": "[2]; db/db mice", "value": "reduced the number of glucagon and somatostatin-producing cells"}, {"measurement": "rate of proliferating beta cells (Ki67 staining)", "setting": "[2]; db/db mice treated twice a week for 7 weeks versus untreated", "value": "higher rate of proliferating beta cells"}, {"measurement": "ratio of beta/alpha and beta/delta cells", "setting": "[2]; db/db mice treated versus non-treated", "value": "higher than in non-treated mice"}, {"measurement": "area of α, β or δ cells compared to total endocrine area", "setting": "[2]; db/db mice, gastric/duodenal and splenic part of pancreas", "value": "increased p cell area with a concomitant reduction in a and 6 cell area"}, {"measurement": "non-fasting plasma insulin", "setting": "db/db mice [3]; IP twice a week for 7 weeks", "value": "remained hyperinsulinemic until the end of the experiment"}, {"measurement": "non-fasting blood glucose", "setting": "db/db mice [3]; IP twice a week for 7 weeks, 30-40 mg per kg", "value": "no increase of glycemia was observed"}, {"measurement": "body weight", "setting": "db/db mice [3]; IP twice a week for 7 weeks, 30-40 mg per kg, versus non-treated", "value": "without presenting any statistically significantly difference between the two groups of animals"}, {"measurement": "time after first administration at which suppression of non-fasting blood glucose was seen", "setting": "db/db mice [3]; twice a week, 30 mg per kg", "value": 5, "unit": "days"}, {"measurement": "basal insulin secretion", "setting": "[4]; 3.3 mM glucose, after 20 hours treatment and 2 hours fasting", "value": "significantly decreased basal insulin secretion levels to near control values"}, {"measurement": "insulin release at high glucose concentration", "setting": "[4]; 16.7 mM glucose, after 20 hours treatment", "value": "did not have any deleterious effect on insulin secretion at high glucose concentration"}, {"measurement": "secretory index", "setting": "[4]; GKA50-treated islets in absence (1.2) or presence (3.4) of the HIF-1α inhibitor", "value": 3.4, "unit": "fold"}, {"measurement": "insulin content", "setting": "[4]; islets treated with GKA50 with or without PX-478", "value": "no impact on insulin content"}, {"measurement": "body weight", "setting": "db/db mice [5]; 40 mg per kg", "value": "without significantly affecting body weight"}, {"measurement": "blood glucose", "setting": "db/db mice [5]; 40 mg per kg twice a week", "value": "decreased blood glucose in a time-dependent manner"}, {"measurement": "plasma insulin level relative to PBS injected group", "setting": "db/db mice [5]; end of the study", "value": 2.5, "unit": "fold"}, {"measurement": "fasting blood glucose", "setting": "db/db mice [6]; [10]", "value": "low blood glucose"}, {"measurement": "fasting plasma insulin levels relative to non-treated db/db mice", "setting": "db/db mice [6]; [10]", "value": 2, "unit": "fold"}, {"measurement": "peripheric insulin sensitivity (ITT)", "setting": "db/db mice [6]; db/db mice, 6 hours fasted, 0.5 U insulin per kg IP", "value": "without improvement of peripheric insulin sensitivity"}, {"measurement": "tolerance to glucose (GTT)", "setting": "db/db mice [6]; db/db mice, 6 hours fasted, 1.5 g glucose per kg IP", "value": "improved tolerance to glucose"}, {"measurement": "gene expression in visceral and subcutaneous WAT", "setting": "[7]", "value": "no major change in gene expression"}, {"measurement": "cell viability (propidium iodide)", "setting": "[8]", "value": "does not decrease cell viability"}, {"measurement": "speed of [Ca2+]i response to glucose", "setting": "[9]; 20 μM GKA50 with or without 50 μM PX-478", "value": "not changed"}, {"measurement": "basal [Ca2+]i oscillations", "setting": "[9]; 3 mM glucose, after 20 hours 20 μM GKA50 with or without 50 μM PX-478 and 2 hours fasting", "value": "prevented basal [Ca^2+]i oscillations"}, {"measurement": "raise of [Ca2+]i in response to glucose", "setting": "[9]; PX-478 in the presence of the GKA activator", "value": "decreased the raise of [Ca^2+]i in response to glucose"}]}
